Experimental findings from publication PMC4805166, “Synthetic Cyclolipopeptides Selective against Microbial, Plant and Animal Cell Targets by Incorporation of D-Amino Acids or Histidine” (PLoS ONE, 2016) are described below.

The test system of the data set is erythrocyte suspensions of horse blood. The following applies: horse erythrocytes 5% vol/vol, TRIS buffer pH 7.2, 1 h at 37°C, absorbance 540 nm, relative to melittin 100 μM, ± confidence interval (α = 0.05).
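Further: Read-out is hemoglobin release into the supernatant, with a buffer-only blank subtracted as the 0% baseline.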

In the case of c(KKLKK(CO-C6H13)FKKLQ) [BPC592], the “Hemolysis (%) 150 µM” value (150 µM peptide) was 100 ± 4%. Moreover, for the setting “250 µM peptide”, the “Hemolysis (%) 250 µM” value was 98 ± 6%.
